Experiments:
mesothelin on Hela cells = mesothelin on Hela cells (UniProt Q13421); experiment: cell-based or functional assay
[1] = target: CD19 on GFP/Luc+ Raji cells (human) (UniProt P15391); experiment: cell-based or functional assay

Substance | cytotoxicity, real-time cytotoxicity assay (xCELLigence), E:T 3:1, 1:1 and 0.3:1, after 40 hours of co-culture (mesothelin on Hela cells) | Specific cell lysis ratio (at E:T = 3:1), luciferase killing assay [1]
anti-mesothelin-NKp30 chimeric antigen receptor of Example 2 (SS1 scFv, (G4S)3 hinge, NKp30 without immunoglobulin-like domain), on CAR-T cells of Example 2C (from UniProt O14931 129-201; P30273 19-86) | 100% | –
anti-CD19 chimeric antigen receptor of Comparative Example 1 (FMC63 scFv, hinge domain of CD8, transmembrane domain of CD8, 4-1BB, signal transduction domain of CD3ζ), on CAR-T cells of Comparative Example 1C (from UniProt P01732 183-206; Q07011 214-255; P20963 52-164) | – | 60 to 70%

From patent US20250108114A1
